Measurements reported in patent US4477456A (priority 1982, dated 1984).

System: characteristic stretching or writhing syndrome induced by phenylquinone
Test: standard phenylquinone writhing (PQW) test, analgesic activity
Assay type: in vivo, female white mice
Conditions: 30 min before observation, mice

Substance | Effect ED50, Oral PQW [mg/kg]
3-Cyclopropylmethyl-5- or -6-(1-hydroxyethyl)-1,2,3,4,5,6,7,7a-octahydro-4a,7-ethanobenzofuro[3,2-e]isoquinolin-9-ol [Example 10 (major)] | 0.75
3-Cyclopropylmethyl-5- or -6-(1-hydroxyethyl)-1,2,3,4,5,6,7,7a-octahydro-4a,7-ethanobenzofuro[3,2-e]isoquinolin-9-ol [Example 10 (minor)] | 15.6
